Measurements published in US20200270233A1, “DHFR INHIBITORS, COMPOSITIONS, AND METHODS RELATED THERETO” (Vyera Pharmaceuticais LLC, priority 2017, published 2020).

Tested on: P. falciparum DHFR (pfDHFR)
Assay type: biochemical
Details: Table 20; hDHFR IC50/pfDHFR IC50

SMILES: Nc1ncc(N2CCN(c3ccccc3)CC2)c(N)n1 [Compound 4, 5-(4-phenylpiperazin-1-yl)pyrimidine-2,4-diamine]
- Average DHFR selectivity (h/pf)* − DHFR IC50: 6660
